# Target: Melanocortin receptor 4 (Homo sapiens, UniProt P32245)
# Sequences of proteins named here, by UniProt entry; tags and fusion partners are left off.
# UniProt P32245, whole entry: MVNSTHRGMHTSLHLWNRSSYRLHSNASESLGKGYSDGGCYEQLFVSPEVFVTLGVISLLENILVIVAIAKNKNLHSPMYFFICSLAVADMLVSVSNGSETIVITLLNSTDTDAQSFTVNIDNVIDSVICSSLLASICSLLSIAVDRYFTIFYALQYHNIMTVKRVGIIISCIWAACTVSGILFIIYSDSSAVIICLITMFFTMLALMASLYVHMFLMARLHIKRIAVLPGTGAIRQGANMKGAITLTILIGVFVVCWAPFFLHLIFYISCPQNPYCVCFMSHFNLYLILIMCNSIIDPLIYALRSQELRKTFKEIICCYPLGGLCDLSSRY
structure (smiles),measurement,value
"CC(C)C(O)(C(=O)OCC1=CCN2CCC(O)C12)C(C)O (stereo not drawn) [beta MSH, human]",Ki,376 nM

# From BindingDB's records for doi:10.1111/j.1600-0773.1996.tb00261.x (Uppsala University, 1996)
